Only a part is listed here, and it is no random draw.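 Method: cells in 96-well plates; compound added at one concentration; 48 h incubation; percent growth measured; values under 10 scored active.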 Calls of active or inactive are those of the source.
How the values were obtained:
Experiment in all cases: NCI-60 one-dose screen, 48 h (100 = growth as untreated, 0 = no growth, -100 = all killed)
Details in all cases: 10 µM
HCT-15 colon = system: HCT-15 colon
HT29 colon = system: HT29 colon
SNB-75 CNS = system: SNB-75 CNS
SNB-19 CNS = system: SNB-19 CNS
U251 CNS = system: U251 CNS
PC-3 prostate = system: PC-3 prostate
SK-MEL-5 melanoma = system: SK-MEL-5 melanoma
UACC-62 melanoma = system: UACC-62 melanoma
LOX IMVI melanoma = system: LOX IMVI melanoma
SK-MEL-28 melanoma = system: SK-MEL-28 melanoma

Measured: growth

COc1cccc(N(CCCl)CCCl)c1OC
inactive: HCT-15 colon 75.8% | HT29 colon 72.4% | SNB-75 CNS 79.8% | SNB-19 CNS 91.7% | U251 CNS 67.6% | PC-3 prostate 69.2% | SK-MEL-5 melanoma 84% | UACC-62 melanoma 65.4% | LOX IMVI melanoma 81.6% | SK-MEL-28 melanoma 102%

ClCCN(CCCl)CCc1ccccc1
inactive: HCT-15 colon 116% | HT29 colon 101% | SNB-75 CNS 99.2% | SNB-19 CNS 92% | U251 CNS 100% | PC-3 prostate 102% | SK-MEL-5 melanoma 105% | UACC-62 melanoma 83.2% | LOX IMVI melanoma 101% | SK-MEL-28 melanoma 98.2%

CCCSP(=O)(CCl)N(CCCl)CCCl (stereo unspecified)
inactive: HCT-15 colon 93.4% | HT29 colon 97.6% | SNB-75 CNS 77.6% | SNB-19 CNS 98.4% | U251 CNS 95.1% | PC-3 prostate 91% | SK-MEL-5 melanoma 99.3% | UACC-62 melanoma 105% | LOX IMVI melanoma 102% | SK-MEL-28 melanoma 103%

Fc1cccc(CBr)c1
inactive: HCT-15 colon 102% | HT29 colon 100% | SNB-75 CNS 103% | SNB-19 CNS 113% | U251 CNS 106% | PC-3 prostate 104% | SK-MEL-5 melanoma 107% | UACC-62 melanoma 96% | LOX IMVI melanoma 102% | SK-MEL-28 melanoma 112%

O=C(O)Cc1c[nH]c2ccc(N(CCCl)CCCl)cc12
inactive: HCT-15 colon 98.6% | HT29 colon 101% | SNB-75 CNS 101% | SNB-19 CNS 96.9% | U251 CNS 107% | PC-3 prostate 86.5% | SK-MEL-5 melanoma 101% | UACC-62 melanoma 86.3% | LOX IMVI melanoma 91.6% | SK-MEL-28 melanoma 116%

N#Cc1ccc(N(CCCl)CCCl)cc1
inactive: HCT-15 colon 94.8% | HT29 colon 101% | SNB-75 CNS 81% | SNB-19 CNS 120% | U251 CNS 104% | PC-3 prostate 84.2% | SK-MEL-5 melanoma 106% | UACC-62 melanoma 101% | LOX IMVI melanoma 106% | SK-MEL-28 melanoma 107%

c1ccc(CN2CCC(Nc3ccccc3)CC2)cc1
inactive: HCT-15 colon 107% | HT29 colon 103% | SNB-75 CNS 97.8% | SNB-19 CNS 104% | U251 CNS 102% | PC-3 prostate 91.4% | SK-MEL-5 melanoma 104% | UACC-62 melanoma 96.8% | LOX IMVI melanoma 104% | SK-MEL-28 melanoma 107%

CCOC(=O)N1CCC(=O)CC1
inactive: HCT-15 colon 97.1% | HT29 colon 102% | SNB-75 CNS 99.2% | SNB-19 CNS 94.9% | U251 CNS 97.4% | PC-3 prostate 95.6% | SK-MEL-5 melanoma 102% | UACC-62 melanoma 96.1% | LOX IMVI melanoma 96.3% | SK-MEL-28 melanoma 102%

CC1(C)NC(=O)N(CCN(CCCl)CCCl)C1=O
inactive: HCT-15 colon 99.9% | HT29 colon 111% | SNB-75 CNS 88.4% | U251 CNS 103% | PC-3 prostate 109% | SK-MEL-5 melanoma 104% | UACC-62 melanoma 99.2% | LOX IMVI melanoma 95.2% | SK-MEL-28 melanoma 110%

Cc1ccc(S(=O)(=O)CN(CCBr)CCBr)cc1
inactive: HCT-15 colon 101% | HT29 colon 98.2% | SNB-75 CNS 69.9% | SNB-19 CNS 102% | PC-3 prostate 102% | SK-MEL-5 melanoma 103% | UACC-62 melanoma 100% | LOX IMVI melanoma 91.7% | SK-MEL-28 melanoma 113%

Cc1ccc2oc(=O)cc(CN(CCCl)CCCl)c2c1
inactive: HCT-15 colon 89.4% | HT29 colon 91.3% | SNB-75 CNS 75.3% | SNB-19 CNS 96.1% | U251 CNS 96.7% | PC-3 prostate 84.5% | SK-MEL-5 melanoma 95.1% | UACC-62 melanoma 83% | LOX IMVI melanoma 95.7% | SK-MEL-28 melanoma 101%

O=C1CCN(CCc2ccccc2)CC1
inactive: HCT-15 colon 100% | HT29 colon 105% | SNB-75 CNS 88.8% | SNB-19 CNS 80.3% | U251 CNS 98.7% | PC-3 prostate 98% | SK-MEL-5 melanoma 99.5% | UACC-62 melanoma 89.2% | LOX IMVI melanoma 105% | SK-MEL-28 melanoma 101%

Cc1cccc(NC2(C#N)CCN(Cc3ccccc3)CC2)c1
inactive: HCT-15 colon 95.3% | HT29 colon 114% | SNB-75 CNS 94.8% | SNB-19 CNS 100% | U251 CNS 105% | PC-3 prostate 91.2% | SK-MEL-5 melanoma 115% | UACC-62 melanoma 109% | LOX IMVI melanoma 99.3% | SK-MEL-28 melanoma 107%

ClCCN1[C@@H](CCl)CC[C@@H]1c1ccccc1
inactive: HCT-15 colon 98.6% | SNB-75 CNS 84.7% | SNB-19 CNS 102% | U251 CNS 98.2% | PC-3 prostate 94.1% | SK-MEL-5 melanoma 100% | UACC-62 melanoma 96.8% | LOX IMVI melanoma 79.1% | SK-MEL-28 melanoma 115%

CC(=O)N(c1ccccc1)C1CCNCC1
inactive: HCT-15 colon 109% | HT29 colon 102% | SNB-75 CNS 86.3% | SNB-19 CNS 113% | U251 CNS 107% | PC-3 prostate 110% | SK-MEL-5 melanoma 109% | UACC-62 melanoma 112% | SK-MEL-28 melanoma 107%

Reference: PubChem BioAssay (NCI)
